Laboratory results taken from article doi:10.1101/2022.12.25.521909v1 (biorxiv, 2022).

Amino acid sequences for entries named in this document (tags omitted).
UniProt O15439, whole entry, looked up: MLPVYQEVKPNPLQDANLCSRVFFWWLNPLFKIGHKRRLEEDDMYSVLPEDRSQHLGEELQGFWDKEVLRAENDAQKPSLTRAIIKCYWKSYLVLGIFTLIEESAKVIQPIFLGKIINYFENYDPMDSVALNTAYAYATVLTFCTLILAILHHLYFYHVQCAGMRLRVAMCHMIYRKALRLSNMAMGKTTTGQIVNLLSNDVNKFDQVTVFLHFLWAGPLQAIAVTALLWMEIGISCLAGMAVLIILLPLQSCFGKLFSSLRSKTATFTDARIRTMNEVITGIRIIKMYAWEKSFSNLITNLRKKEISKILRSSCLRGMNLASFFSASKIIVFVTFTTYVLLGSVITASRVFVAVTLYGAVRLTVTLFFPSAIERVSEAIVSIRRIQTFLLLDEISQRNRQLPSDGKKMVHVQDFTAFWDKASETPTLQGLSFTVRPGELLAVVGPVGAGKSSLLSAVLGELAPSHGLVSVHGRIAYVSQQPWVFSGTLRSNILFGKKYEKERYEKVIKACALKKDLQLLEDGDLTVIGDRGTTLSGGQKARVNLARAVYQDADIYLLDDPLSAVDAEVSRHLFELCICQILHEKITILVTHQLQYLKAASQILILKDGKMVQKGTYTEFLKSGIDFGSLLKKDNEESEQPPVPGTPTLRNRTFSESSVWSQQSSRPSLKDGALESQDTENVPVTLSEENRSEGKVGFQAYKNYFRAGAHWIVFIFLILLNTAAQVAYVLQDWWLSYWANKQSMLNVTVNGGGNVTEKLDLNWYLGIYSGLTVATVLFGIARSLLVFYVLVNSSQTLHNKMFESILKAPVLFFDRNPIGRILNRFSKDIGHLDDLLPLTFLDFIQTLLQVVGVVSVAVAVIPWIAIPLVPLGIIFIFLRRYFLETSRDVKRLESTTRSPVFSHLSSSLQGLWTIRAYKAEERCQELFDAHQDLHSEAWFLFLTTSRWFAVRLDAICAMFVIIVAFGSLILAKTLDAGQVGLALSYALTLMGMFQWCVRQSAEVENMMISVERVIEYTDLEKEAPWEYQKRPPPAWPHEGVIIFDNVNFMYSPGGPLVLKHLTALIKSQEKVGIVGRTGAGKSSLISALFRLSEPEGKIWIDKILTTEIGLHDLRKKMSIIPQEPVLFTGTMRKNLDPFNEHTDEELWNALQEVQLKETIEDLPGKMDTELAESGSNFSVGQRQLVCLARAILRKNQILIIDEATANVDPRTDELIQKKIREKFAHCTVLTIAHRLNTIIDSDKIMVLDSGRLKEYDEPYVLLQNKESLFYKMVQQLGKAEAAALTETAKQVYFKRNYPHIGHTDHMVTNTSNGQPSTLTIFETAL

Biological target: human ABCC4 (ABCC4/MRP4) (Homo sapiens, UniProt O15439)
Experiment: stimulation of ATPase activity, ABCC4 in lipid nanodiscs, logistic fit
Format: biochemical
Settings: 2 mM ATP, transmembrane substrate pocket

EC50: 6.4 µM
SMILES: CCCCC[C@H](O)/C=C/[C@@H]1[C@@H](C/C=C\CCCC(=O)O)[C@H]2CO[C@@H]1C2
